{"source": "patent US7691420B2", "about": "“Compositions for the treatment and prevention of diabetes mellitus” (priority 2003, dated 2010)", "tested_on": "C57BLKS/J db/db mice", "assay": "Oral glucose tolerance test and fasted state glucose in db/db mice after 4 weeks", "format": "in vivo", "conditions": "1% EGCG and/or 0.038% rosiglitazone in diet, oral glucose load 1 g/kg, blood glucose curve 0-180 minutes", "procedure": "This model of late type 2 diabetes with severe hyperglycemia and obesity is widely used to determine the efficacy of anti-diabetic and anti-obesity compounds.\nMale db/db mice were obtained from Jackson Laboratory (Bar Harbor, Me., USA). Adult mice aged 8 weeks were used in the experiment. Mice were housed individually in plastic cages with bedding and allowed free access to standard rodent food and tap water. The animal rooms were controlled for temperature (24° C.), humidity (55%), and light (12-h light-dark cycle). The animals were randomized into four groups. […] Body weight and food intake were determined over the course of the study. Total adipose tissue weight was determined by NMR. After four weeks of treatment an oral glucose tolerance test was carried out after an overnight fasting period. The blood glucose levels were measured before (fasted state glucose levels) application of an oral glucose load (1 g/kg body weight) and after 15, 30, 45, 60, 90, 120, 150 and 180 minutes. Area under the curve (AUC) was calculated from the resulting blood glucose curves and served as an indicator of glucose tolerance. At the end of the study, fed state levels of glucose, triglycerides and free fatty acids were determined in plasma. All data are expressed as means for animals in each group.", "note": "Marks after values point to notes of the source that are not given here.", "data": [{"smiles": "CN(CCOc1ccc(CC2SC(=O)NC2=O)cc1)c1ccccn1", "note": "(stereo not shown) [Rosiglitazone, rosiglitazone, reference compound]", "values": [{"measurement": "AUC", "value": "35185.0*"}]}]}
